Increase for transformation data for one substance are collected here from EP1611148B1, “NOVEL NITRILE GLYCOSIDE USEFUL AS A BIO-ENHANCER OF DRUGS AND NUTRIENTS, PROCESS OF ITS ISOLATION FROM MORINGA OLEIFERA” (Council of Scientific and Industrial Research, priority 2003, dated 2004).

The test system of one assay is E.coli CA8000. Briefly: Enhancement of bacterial transformation with pUC18 plasmid DNA, strain CA8000. The note with it: niaziridin @1-10µg/ml for 4 hours.
Another assay has as its system E.coli DH5α. Briefly: Enhancement of bacterial transformation with pUC18 plasmid DNA, strain DH5α. The note with it: niaziridin @1-10µg/ml for 4 hours.

niaziridin: the increase for transformation with E.coli CA8000 was 5.5 folds; in the assay on E.coli DH5α it was 2.3 folds.
